Measured values as given in paper PMC5384220, “Highly selective inhibition of histone demethylases by de novo macrocyclic peptides” (Nature Communications, 2017).

Chains of the proteins cited; added tags and fusions are not shown.
UniProt O15054, whole entry: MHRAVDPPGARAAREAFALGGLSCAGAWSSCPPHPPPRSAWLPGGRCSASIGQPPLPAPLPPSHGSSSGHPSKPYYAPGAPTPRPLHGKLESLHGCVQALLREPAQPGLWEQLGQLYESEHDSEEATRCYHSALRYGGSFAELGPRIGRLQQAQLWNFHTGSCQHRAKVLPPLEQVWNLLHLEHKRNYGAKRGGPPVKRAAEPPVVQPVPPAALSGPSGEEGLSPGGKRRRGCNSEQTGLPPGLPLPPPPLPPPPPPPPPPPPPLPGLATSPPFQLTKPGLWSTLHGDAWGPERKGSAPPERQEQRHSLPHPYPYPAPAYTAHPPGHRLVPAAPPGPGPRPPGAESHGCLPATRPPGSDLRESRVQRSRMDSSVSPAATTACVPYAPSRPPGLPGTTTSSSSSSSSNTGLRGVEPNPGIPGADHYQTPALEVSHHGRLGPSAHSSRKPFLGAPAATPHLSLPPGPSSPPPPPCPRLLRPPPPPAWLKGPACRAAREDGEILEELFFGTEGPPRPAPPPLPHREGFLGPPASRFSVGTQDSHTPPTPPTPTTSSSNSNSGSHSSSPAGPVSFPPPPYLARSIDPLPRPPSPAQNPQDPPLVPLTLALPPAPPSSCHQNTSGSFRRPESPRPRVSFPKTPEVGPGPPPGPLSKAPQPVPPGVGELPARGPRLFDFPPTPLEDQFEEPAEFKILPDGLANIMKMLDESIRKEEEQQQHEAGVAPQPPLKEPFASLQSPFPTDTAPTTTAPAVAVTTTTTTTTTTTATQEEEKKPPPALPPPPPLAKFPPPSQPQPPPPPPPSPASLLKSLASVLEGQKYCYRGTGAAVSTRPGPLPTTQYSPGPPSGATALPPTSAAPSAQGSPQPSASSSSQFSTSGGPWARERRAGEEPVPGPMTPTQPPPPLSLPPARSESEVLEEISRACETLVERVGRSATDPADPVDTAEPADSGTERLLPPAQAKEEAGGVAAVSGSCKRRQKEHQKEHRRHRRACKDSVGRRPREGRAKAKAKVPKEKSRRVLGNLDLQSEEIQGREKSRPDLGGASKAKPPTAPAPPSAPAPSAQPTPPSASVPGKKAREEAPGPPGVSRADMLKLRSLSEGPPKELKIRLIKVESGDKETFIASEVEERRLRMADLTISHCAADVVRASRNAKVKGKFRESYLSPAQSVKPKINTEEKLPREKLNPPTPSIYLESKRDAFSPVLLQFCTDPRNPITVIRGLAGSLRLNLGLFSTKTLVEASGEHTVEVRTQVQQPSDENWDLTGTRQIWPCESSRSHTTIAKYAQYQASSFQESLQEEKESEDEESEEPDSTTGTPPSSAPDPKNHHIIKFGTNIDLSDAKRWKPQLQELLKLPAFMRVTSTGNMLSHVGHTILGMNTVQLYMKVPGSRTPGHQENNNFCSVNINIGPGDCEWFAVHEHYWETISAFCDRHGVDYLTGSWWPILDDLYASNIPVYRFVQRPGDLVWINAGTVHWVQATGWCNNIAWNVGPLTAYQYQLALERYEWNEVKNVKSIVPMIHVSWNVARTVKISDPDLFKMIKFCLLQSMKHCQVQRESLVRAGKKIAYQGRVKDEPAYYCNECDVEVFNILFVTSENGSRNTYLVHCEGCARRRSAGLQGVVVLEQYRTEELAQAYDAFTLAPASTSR

B1: CP5 (peptide)
chain: YSKYTQSGVRWVC
modifications: N-terminal L-Tyr (^LTyr library, N-chloroacetyl-L-Tyr) cyclised by a thioether to a downstream cysteine
B2: CP4 (peptide)
chain: YLKSRRSGLTWIPC
modifications: N-terminal L-Tyr (^LTyr library, N-chloroacetyl-L-Tyr) cyclised by a thioether to a downstream cysteine

Key:
[1] = biological target: T1, KDM4E (human, UniProt B2RXH2 1-506); assay: cell-based or functional assay
T1 sequence (looked up): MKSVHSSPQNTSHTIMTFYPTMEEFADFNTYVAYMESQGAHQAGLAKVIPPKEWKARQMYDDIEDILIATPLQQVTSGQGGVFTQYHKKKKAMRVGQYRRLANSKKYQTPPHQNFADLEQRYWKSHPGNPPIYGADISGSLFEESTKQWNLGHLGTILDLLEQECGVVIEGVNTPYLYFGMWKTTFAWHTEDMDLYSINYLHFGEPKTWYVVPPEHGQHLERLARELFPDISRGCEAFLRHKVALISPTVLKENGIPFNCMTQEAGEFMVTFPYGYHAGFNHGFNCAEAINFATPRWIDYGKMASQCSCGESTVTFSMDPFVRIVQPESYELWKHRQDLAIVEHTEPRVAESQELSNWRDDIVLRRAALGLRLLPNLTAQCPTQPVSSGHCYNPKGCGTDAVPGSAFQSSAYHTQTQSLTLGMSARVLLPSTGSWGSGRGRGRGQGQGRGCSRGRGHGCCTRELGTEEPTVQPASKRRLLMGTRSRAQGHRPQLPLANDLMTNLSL

[2] = biological target: T2, N-terminally Hexa-His-tagged KDM4A (residues 1–359) (human, UniProt O75164 1-359); assay: cell-based or functional assay
T2 sequence (looked up): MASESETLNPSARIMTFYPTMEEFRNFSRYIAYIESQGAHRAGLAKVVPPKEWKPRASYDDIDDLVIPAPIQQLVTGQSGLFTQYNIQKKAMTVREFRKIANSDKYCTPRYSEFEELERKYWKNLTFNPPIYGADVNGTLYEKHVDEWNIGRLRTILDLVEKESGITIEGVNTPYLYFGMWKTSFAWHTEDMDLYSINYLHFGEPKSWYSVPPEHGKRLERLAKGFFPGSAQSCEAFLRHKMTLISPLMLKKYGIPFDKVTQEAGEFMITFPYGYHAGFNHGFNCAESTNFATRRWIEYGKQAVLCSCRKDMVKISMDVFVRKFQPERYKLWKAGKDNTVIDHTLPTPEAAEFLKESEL

[3] = biological target: T3, KDM4C (human, UniProt Q9H3R0 1-1056); assay: cell-based or functional assay
T3 sequence (looked up): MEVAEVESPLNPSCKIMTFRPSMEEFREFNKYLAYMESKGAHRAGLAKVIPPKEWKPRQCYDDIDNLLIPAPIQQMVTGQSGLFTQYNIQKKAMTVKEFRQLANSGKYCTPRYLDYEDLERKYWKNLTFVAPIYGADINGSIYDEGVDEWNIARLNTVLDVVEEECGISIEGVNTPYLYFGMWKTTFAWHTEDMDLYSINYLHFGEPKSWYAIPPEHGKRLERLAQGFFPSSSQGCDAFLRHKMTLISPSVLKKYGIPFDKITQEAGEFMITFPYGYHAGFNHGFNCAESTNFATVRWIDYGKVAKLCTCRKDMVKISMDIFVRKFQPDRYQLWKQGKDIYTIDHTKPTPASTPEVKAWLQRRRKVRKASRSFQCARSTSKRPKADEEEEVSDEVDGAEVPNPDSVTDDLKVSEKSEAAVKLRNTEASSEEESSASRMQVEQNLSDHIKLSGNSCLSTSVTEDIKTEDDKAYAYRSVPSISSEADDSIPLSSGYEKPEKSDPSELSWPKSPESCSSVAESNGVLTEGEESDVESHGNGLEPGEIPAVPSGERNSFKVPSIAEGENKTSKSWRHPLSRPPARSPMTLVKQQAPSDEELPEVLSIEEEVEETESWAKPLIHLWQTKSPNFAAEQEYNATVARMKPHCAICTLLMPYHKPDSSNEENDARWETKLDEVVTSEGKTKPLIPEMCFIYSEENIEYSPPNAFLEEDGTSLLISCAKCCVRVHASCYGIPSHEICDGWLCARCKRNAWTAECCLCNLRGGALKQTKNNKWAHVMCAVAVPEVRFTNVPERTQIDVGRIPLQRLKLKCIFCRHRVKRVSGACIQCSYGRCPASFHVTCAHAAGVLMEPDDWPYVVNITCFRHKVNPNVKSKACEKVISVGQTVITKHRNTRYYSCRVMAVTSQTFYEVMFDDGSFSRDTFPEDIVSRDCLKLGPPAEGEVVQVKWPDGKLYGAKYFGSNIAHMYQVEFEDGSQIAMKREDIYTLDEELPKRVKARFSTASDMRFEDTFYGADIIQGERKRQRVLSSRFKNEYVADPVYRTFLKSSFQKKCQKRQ

[4] = biological target: T4, KDM4B (human, UniProt O94953 1-1096); assay: cell-based or functional assay
T4 sequence (looked up): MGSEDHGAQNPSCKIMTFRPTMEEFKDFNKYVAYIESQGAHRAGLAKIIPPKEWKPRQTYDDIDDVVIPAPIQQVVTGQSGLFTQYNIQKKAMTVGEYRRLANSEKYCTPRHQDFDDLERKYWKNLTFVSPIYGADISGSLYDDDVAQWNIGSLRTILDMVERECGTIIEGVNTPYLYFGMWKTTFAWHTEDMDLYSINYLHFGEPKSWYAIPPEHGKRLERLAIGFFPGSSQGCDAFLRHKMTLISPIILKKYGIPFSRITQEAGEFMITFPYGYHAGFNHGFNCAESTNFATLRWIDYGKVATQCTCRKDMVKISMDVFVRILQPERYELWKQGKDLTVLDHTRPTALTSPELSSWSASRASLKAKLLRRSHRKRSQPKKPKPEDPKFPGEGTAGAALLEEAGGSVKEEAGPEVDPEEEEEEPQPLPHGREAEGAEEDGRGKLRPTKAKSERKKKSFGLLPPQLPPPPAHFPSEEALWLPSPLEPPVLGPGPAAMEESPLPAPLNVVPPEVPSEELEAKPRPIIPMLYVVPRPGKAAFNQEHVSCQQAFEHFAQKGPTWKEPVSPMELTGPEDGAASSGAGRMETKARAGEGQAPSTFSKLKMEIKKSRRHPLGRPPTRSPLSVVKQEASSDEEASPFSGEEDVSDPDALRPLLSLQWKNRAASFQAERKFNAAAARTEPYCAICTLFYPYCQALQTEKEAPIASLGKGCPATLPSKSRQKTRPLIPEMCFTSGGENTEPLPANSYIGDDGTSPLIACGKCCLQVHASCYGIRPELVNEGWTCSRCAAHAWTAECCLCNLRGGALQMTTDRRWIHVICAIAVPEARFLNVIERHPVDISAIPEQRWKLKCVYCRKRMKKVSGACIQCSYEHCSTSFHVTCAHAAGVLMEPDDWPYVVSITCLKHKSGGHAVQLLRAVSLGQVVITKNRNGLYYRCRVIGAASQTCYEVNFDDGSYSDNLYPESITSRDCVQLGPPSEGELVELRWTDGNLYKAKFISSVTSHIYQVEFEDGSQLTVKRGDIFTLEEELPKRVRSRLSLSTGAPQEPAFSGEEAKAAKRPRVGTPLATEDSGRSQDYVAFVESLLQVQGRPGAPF

[5] = biological target: T5, His-KDM4A_(1–359)-Bio (human, UniProt O75164 1-359, biotin on the AviTag (>95% biotinylation)); assay: BLI; His-KDM4A(1–359)-Bio (70 nM) immobilised on super streptavidin biosensor, peptides at different concentrations in solution; OctetRed 384; 50 mM HEPES pH 7.5, 150 mM NaCl, 10 μM ammonium iron(II) sulphate; conditions: both partners purified
T5 construct: KDM4A, residues 1-359, cloned into pNIC-Bio3; also called His-KDM4A-Bio; His-KDM4A with biotin; not shown: AviTag, C-terminal, kept
T5 sequence (looked up): T2 sequence (looked up)

[6] = biological target: T6, KDM4D (human, UniProt Q6B0I6 1-523); assay: cell-based or functional assay
T6 sequence (looked up): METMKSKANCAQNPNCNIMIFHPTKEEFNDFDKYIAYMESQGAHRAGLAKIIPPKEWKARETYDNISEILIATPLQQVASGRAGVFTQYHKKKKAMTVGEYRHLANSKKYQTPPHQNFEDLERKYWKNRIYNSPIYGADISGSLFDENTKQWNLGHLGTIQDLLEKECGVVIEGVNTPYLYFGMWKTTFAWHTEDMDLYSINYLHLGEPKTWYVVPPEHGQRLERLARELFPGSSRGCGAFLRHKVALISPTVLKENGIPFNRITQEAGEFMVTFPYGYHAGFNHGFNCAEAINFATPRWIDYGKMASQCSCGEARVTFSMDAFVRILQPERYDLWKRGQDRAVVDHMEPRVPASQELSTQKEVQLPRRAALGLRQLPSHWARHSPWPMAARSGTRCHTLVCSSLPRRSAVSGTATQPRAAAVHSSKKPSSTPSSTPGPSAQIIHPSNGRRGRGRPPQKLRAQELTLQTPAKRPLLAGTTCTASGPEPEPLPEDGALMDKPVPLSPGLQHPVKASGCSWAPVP

[7] = biological target: T7, KDM3A (human, UniProt Q9Y4C1 1-1321); assay: cell-based or functional assay
T7 sequence (looked up): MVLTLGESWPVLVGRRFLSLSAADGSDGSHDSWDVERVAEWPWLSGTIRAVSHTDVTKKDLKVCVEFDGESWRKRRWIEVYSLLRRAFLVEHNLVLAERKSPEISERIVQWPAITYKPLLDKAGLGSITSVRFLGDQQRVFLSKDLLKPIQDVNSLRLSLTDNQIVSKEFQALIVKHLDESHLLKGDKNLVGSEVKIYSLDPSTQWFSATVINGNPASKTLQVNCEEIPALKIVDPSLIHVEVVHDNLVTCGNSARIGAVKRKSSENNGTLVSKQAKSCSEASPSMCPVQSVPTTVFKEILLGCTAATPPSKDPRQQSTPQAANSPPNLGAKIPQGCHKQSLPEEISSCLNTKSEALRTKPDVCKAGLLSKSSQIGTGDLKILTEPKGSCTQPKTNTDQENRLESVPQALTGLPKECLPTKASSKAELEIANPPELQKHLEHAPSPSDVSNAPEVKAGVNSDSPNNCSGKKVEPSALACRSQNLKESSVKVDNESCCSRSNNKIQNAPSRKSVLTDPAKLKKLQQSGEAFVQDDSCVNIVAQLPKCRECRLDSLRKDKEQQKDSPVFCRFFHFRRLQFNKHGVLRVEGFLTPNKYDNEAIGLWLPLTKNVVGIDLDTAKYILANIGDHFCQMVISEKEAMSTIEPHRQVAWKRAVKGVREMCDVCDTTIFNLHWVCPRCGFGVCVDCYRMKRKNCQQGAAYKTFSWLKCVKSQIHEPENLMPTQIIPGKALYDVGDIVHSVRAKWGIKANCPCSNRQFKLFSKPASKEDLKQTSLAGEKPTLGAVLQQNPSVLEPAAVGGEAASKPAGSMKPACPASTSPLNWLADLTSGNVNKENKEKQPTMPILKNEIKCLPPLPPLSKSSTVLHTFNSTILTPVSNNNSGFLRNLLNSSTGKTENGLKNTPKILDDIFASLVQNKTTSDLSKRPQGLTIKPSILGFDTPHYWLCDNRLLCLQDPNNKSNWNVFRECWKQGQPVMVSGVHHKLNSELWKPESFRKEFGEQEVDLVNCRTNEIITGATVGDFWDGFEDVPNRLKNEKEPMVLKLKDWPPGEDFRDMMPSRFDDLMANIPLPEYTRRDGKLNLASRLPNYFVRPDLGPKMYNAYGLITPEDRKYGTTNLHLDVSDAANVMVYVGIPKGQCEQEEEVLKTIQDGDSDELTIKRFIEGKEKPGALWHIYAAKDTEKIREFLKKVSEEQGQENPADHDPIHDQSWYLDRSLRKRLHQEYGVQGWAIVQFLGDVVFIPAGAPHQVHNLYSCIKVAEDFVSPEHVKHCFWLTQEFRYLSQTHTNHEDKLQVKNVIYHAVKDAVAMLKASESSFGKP

[8] = biological target: KDM6B (human, UniProt O15054 1-1643); assay: cell-based or functional assay

Binder | IC50 of inhibition of demethylase activity (AlphaScreen activity assay) [1] | IC50 of inhibition of demethylase activity (AlphaScreen activity assay) [2] | IC50 of inhibition of demethylase activity (AlphaScreen activity assay) [3] | IC50 of inhibition of demethylase activity (AlphaScreen activity assay) [4] | Kd [5] | IC50 of inhibition of demethylase activity (AlphaScreen activity assay) [6] | IC50 of inhibition of demethylase activity (AlphaScreen activity assay) [7] | IC50 of inhibition of demethylase activity (AlphaScreen activity assay) [8]
B1 | 8900 nM | 313 nM | 123 nM | 472 nM | 173 nM |  |  | 
B2 | 4700 nM |  |  |  | 36 nM | 6260 nM | 9900 nM | 7200 nM
